Values of other authors in paper PMC9510668 (Frontiers in Pharmacology, 2022).

Tested on: CYP3A4
Conditions: lapatinib; ref [7]; cited from earlier work

For CS(=O)(=O)CCNCc1ccc(-c2ccc3ncnc(Nc4ccc(OCc5cccc(F)c5)c(Cl)c4)c3c2)o1 [lapatinib], the “kinact CPY3A4” value is listed as 0.021 min⁻¹.
